Literature values in EP0866709B1, “1,2,4-BENZOTRIAZINE OXIDES FORMULATIONS” (priority 1995, dated 1997).
Where two headings read alike, the source gives them in different places.

Columns and labels:
hypoxic cells [1] = details: Rodent; in vitro; drug concentration required under aerobic vs. hypoxic conditions for equivalent cell killing; cited from earlier work
hypoxic cells [2] = details: Human; in vitro; drug concentration required under aerobic vs. hypoxic conditions for equivalent cell killing; cited from earlier work

**Q.** Which “Hypoxic Cytotoxicity Ratio” value (hypoxic cells [1]) does the source give for Mitomycin C here?
**A.** 1-5

**Q.** What about the “Hypoxic Cytotoxicity Ratio” value (hypoxic cells [2]) of the same substance?
**A.** 1-2
